{"source": "patent US20260034130A1", "about": "(priority 2022, published 2026)", "origin": "cited, not measured here", "tested_on": "patients after acute non-cardioembolic ischaemic stroke", "settings": "10, 20 or 50 mg once daily for 26 to 52 weeks, added to antiplatelet therapy; cited from earlier work", "data": [{"substance": "asundexian", "values": [{"measurement": "composite of major or clinically relevant non-major bleeding compared with placebo", "result": "did not increase"}]}]}
